Among the data in article PMC3631511 are k (first-order rate constant of the loss of soluble peptide in the 1:1 mixture) and critical concentration (Cr) values, retold here.

In assay [1] the target is ΔE22-Aβ_(1-39) (Japanese mutant Aβ). In words: sedimentation with reverse phase HPLC of the supernatant.
Assay [2] has as its target wild-type Aβ_(1-40). In words: critical concentration.

As for wild-type Aβ_(1-40) (peptide), in assay [1], the k (first-order rate constant of the loss of soluble peptide in the 1:1 mixture) turned out to be 0.08 h⁻¹.
In assay [2], “wild-type Aβ_(1-40) (peptide; other documents disagree on this pair)” yielded a critical concentration (Cr) of 2.89 µM.
